The text below walks through data of patent US9561197B2 (Horizon Therapeutics, LLC, priority 2012, dated 2017).

For the data set the following is noted: Patient 2.

sodium phenylbutyrate [NaPBA] came in with a PAA (NaPBA 450 mg/Kg/day for one week) of 280 µg/L. The clinical presentation result (NaPBA 600 mg/kg per day) is “poor feeding and somnolence”.
